Consider one molecule from patent US11091469B2, “Crystalline form of N-[5-(3,5-difluoro-benzyl)-1H-indazol-3-yl]-4-(4-methyl-piperazin-1-yl)-2-(tetrahydro-pyran-4-ylamino)-benzamide” (NERVIANO MEDICAL SCIENCES S.R.L., priority 2016, dated 2021).

A short description of the data set: Phase I clinical trials of entrectinib in cancer patients: treatment-related adverse events, recommended Phase II dose.

As to `CN1CCN(c2ccc(C(=O)Nc3n[nH]c4ccc(Cc5cc(F)cc(F)c5)cc34)c(NC3CCOCC3)c2)CC1` [Entrectinib, N-[5-(3,5-Difluoro-benzyl)-1H-indazol-3-yl]-4-(4-methyl-piperazin-1-yl)-2-(tetrahydro-pyran-4-ylamino)-benzamide], under “Grade 3 cognitive impairment and Grade 3 myocarditis (doses above recommended Phase II dose), Grade 2 fatigue, all reversible upon dose modification”, the “treatment-related serious adverse events” value was “three treatment-related serious adverse events”. The “Grade 4 or Grade 5 treatment-related adverse events” value (across the Phase I studies) is “No Grade 4 or Grade 5 treatment-related adverse events were observed”.
